# Measurements as given in US20120264825A1, “Amino Acid Perhydrates, Process for Their Preparation and Uses thereof” (priority 2009, published 2012).
# Conditions: start of peak; 2 degree/min under nitrogen flow
# Protocol: TG and DSC studies were performed on Thermobalance, TG50 and differential scanning calorimeter, DSC 822 (Mettler, Toledo) in the range 25-200° C. under nitrogen flow at a heating rate of 2 degree/min.
substance,measurement,value
Glycine Hydrogen Peroxide Sesquisolvate C2H5NO2.1.5(H2O2) [Example 3],"exothermic decomposition peak, start (DSC)",80 °C
